For this data set the following is noted: in vivo.

In the case of `C[C@@H]1CCN(C(=O)CC#N)C[C@@H]1N(C)c1ncnc2[nH]ccc12` [CP-690550], the “adverse effects of treatment alone” value was “no adverse effects”.
